Earlier results on one substance are cited in publication PMC3101248.

This data set addresses VPS35 (Homo sapiens) (UniProt Q96QK1). The settings on record: cited from earlier work.

For the substance VPS29 (from UniProt Q9UBQ0), the equilibrium dissociation constant (Kd) is 250 nM.
